From article PMC10838150 (Toxicology in vitro : an international journal published in …, 2021)
“And” between values parts separate entries of the source, which are not always exact repeats. Identical values can stand only once.

O=S(=O)(O)O.O=c1ccc2ccc(O)cc2o1 [7HCS, 7-hydroxycoumarin sulfate]
Phase II Metabolite Formation Rate (HEK293): 10.3 ± 1.86 pmol/minute-million cells and 17.9 ± 3.56 pmol/minute-million cells
Phase II Metabolite Formation Rate (PHHs): 6.55 ± 0.365 pmol/minute-million cells
Phase II Metabolite Formation Rate (MCF7): 4.69 ± 0.848 pmol/minute-million cells and 6.63 ± 4.56 pmol/minute-million cells
Phase II Metabolite Formation Rate (HepG2): 4.77 ± 1.04 pmol/minute-million cells and 6.46 ± 3.63 pmol/minute-million cells
